Legend:
Type in all cases: cell-based
[1] = test system: bacteria on the surface of apple; test: Apple (Iodine Sanitization Unit), total bacteria on surface; conditions: Iodine Sanitization Unit dip 1 min, 30 ppm
[2] = test system: fungi on the surface of strawberry; test: Strawberry (Sanitization Unit), total fungi on surface; conditions: Sanitization Unit dip 1 min, 30 ppm
[3] = test system: fungi on the surface of rockmelon; test: Rockmelon (Sanitization Unit), total fungi on surface; conditions: Sanitization Unit dip 1 min, 30 ppm
[4] = test system: fungi on the surface of tomato; test: Tomato with dirt (Sanitization Unit), total fungi on surface; conditions: iodine 20 ppm; for Fungal population per cm^2 Log10 reduction: vs control
[5] = test system: fungi on the surface of peach; test: Peach (lab dipped), total fungi on surface; conditions: lab dipped 1 min, 30 ppm
[6] = test system: bacteria on the surface of strawberry; test: Strawberry (Sanitization Unit), total bacteria on surface; conditions: Sanitization Unit dip 1 min, 30 ppm
[7] = test system: bacteria on the surface of apple; test: Apple with dirt (Sanitization Unit), total bacteria on surface; conditions: iodine set at 20 ppm, chlorine not recharged; for Bacterial population per cm^2 Log10 reduction: vs control
[8] = test system: bacteria on the surface of potato; test: Potato (Sanitizing Unit), total bacteria on surface; conditions: Sanitizing Unit dip 1 min, 30 ppm
[9] = test system: bacteria on the surface of lettuce; test: Lettuce (Sanitizing Unit), total bacteria on surface; conditions: Sanitizing Unit dip 1 min, 30 ppm
[10] = test system: fungi on the surface of lettuce; test: Lettuce (Sanitizing Unit), total fungi on surface; conditions: Sanitizing Unit dip 1 min, 30 ppm
[11] = test system: bacteria on the surface of rockmelon; test: Rockmelon (Sanitization Unit), total bacteria on surface; conditions: Sanitization Unit dip 1 min, 30 ppm
[12] = test system: bacteria on the surface of tomato; test: Tomato with dirt (Sanitization Unit), total bacteria on surface; conditions: iodine 20 ppm; for Bacterial population per cm^2 Log10 reduction: vs control
[13] = test system: fungi on the surface of avocado; test: Avocado (Sanitization Unit), total fungi on surface; conditions: Sanitization Unit dip 1 min, 30 ppm
[14] = test system: bacteria on the surface of avocado; test: Avocado (Sanitization Unit), total bacteria on surface; conditions: Sanitization Unit dip 1 min, 30 ppm
[15] = test system: fungi on the surface of potato; test: Potato (Sanitizing Unit), total fungi on surface; conditions: Sanitizing Unit dip 1 min, 30 ppm
[16] = test system: fungi on the surface of apple; test: Apple with dirt (Sanitization Unit), total fungi on surface; conditions: iodine set at 20 ppm, chlorine not recharged; for Fungal population per cm^2 Log10 reduction: vs control
[17] = test system: fungi on the surface of apple; test: Apple (Iodine Sanitization Unit), total fungi on surface; conditions: Iodine Sanitization Unit dip 1 min, 30 ppm
[18] = test system: bacteria on the surface of peach; test: Peach (lab dipped), total bacteria on surface; conditions: lab dipped 1 min, 30 ppm
[19] = dipped at 0 min (before dirt), chlorine 30 ppm
[20] = dipped at 0 min (before dirt), chlorine 30 ppm, listed as chlorine
[21] = dipped at 5 min, chlorine 30 ppm initial
[22] = dipped at 20 min, chlorine 30 ppm initial
[23] = dipped at 50 min, chlorine 30 ppm initial
[24] = dipped at 0 min (before dirt), listed as chlorine

chlorine
Bacterial population per cm^2 Actual count [1]: 4.0 per cm^2
Bacterial population per cm^2 Log10 count [1]: 0.28 log10 units
Bacterial population per cm^2 Log10 reduction ([1]; vs undipped control): 1.86 b log10 units
Fungal population per cm^2 Actual count [2]: 519 per cm^2
Fungal population per cm^2 Log10 count [2]: 2.62 log10 units
Fungal population per cm^2 Log10 reduction ([2]; vs undipped control): 0.31 a log10 units
Fungal population per cm^2 Actual count [3]: 0.80 per cm^2
Fungal population per cm^2 Log10 count [3]: −0.10 log10 units
Fungal population per cm^2 Log10 reduction ([3]; vs undipped control): 2.95 e log10 units
Fungal population per cm^2 Actual count [4, 19]: 3 per cm^2
Fungal population per cm^2 Log10 count [4, 19]: 0.23 log10 units
Fungal population per cm^2 Log10 reduction [4, 19]: 1.34 fghi log10 units
Fungal population per cm^2 Log10 reduction [4, 20]: about 1 log10 units
Fungal population per cm^2 Actual count [4, 21]: 4.7 per cm^2
Fungal population per cm^2 Log10 count [4, 21]: 0.62 log10 units
Fungal population per cm^2 Log10 reduction [4, 21]: 0.94 def log10 units
Fungal population per cm^2 Actual count [4, 22]: 9 per cm^2
Fungal population per cm^2 Log10 count [4, 22]: 0.86 log10 units
Fungal population per cm^2 Log10 reduction [4, 22]: 0.71 cd log10 units
Fungal population per cm^2 Actual count [4, 23]: 25 per cm^2
Fungal population per cm^2 Log10 count [4, 23]: 1.30 log10 units
Fungal population per cm^2 Log10 reduction [4, 23]: 0.26 ab log10 units
Fungal population per cm^2 Actual count [5]: 3.2 per cm^2
Fungal population per cm^2 Log10 count [5]: 0.29 log10 units
Fungal population per cm^2 Log10 reduction ([5]; vs undipped control): 1.97 d log10 units
Bacterial population per cm^2 Actual count [6]: 3710 per cm^2
Bacterial population per cm^2 Log10 count [6]: 3.53 log10 units
Bacterial population per cm^2 Log10 reduction ([6]; vs undipped control): 0.66 bcd log10 units
Bacterial population per cm^2 Actual count ([7]; dipped at 0 min (before dirt)): 3 per cm^2
Bacterial population per cm^2 Log10 count ([7]; dipped at 0 min (before dirt)): 0.25 log10 units
Bacterial population per cm^2 Log10 reduction ([7]; dipped at 0 min (before dirt)): 1.77 fg log10 units
Bacterial population per cm^2 Log10 reduction [7, 24]: about 1.5 log10 units
Bacterial population per cm^2 Actual count ([7]; dipped at 5 min): 26 per cm^2
Bacterial population per cm^2 Log10 count ([7]; dipped at 5 min): 1.03 log10 units
Bacterial population per cm^2 Log10 reduction ([7]; dipped at 5 min): 0.99 bcd log10 units
Bacterial population per cm^2 Actual count ([7]; dipped at 20 min): 22 per cm^2
Bacterial population per cm^2 Log10 count ([7]; dipped at 20 min): 1.07 log10 units
Bacterial population per cm^2 Log10 reduction ([7]; dipped at 20 min): 0.94 bc log10 units
Bacterial population per cm^2 Actual count ([7]; dipped at 50 min): 56 per cm^2
Bacterial population per cm^2 Log10 count ([7]; dipped at 50 min): 1.69 log10 units
Bacterial population per cm^2 Log10 reduction ([7]; dipped at 50 min): 0.33 a log10 units
Bacterial population per cm^2 Actual count [8]: 378 per cm^2
Bacterial population per cm^2 Log10 count [8]: 2.56 log10 units
Bacterial population per cm^2 Log10 reduction ([8]; vs undipped control): 0.38 ab log10 units
Bacterial population per cm^2 Actual count [9]: 14 per cm^2
Bacterial population per cm^2 Log10 count [9]: 0.71 log10 units
Bacterial population per cm^2 Log10 reduction ([9]; vs undipped control): 2.11 d log10 units
Fungal population per cm^2 Actual count [10]: 0.44 per cm^2
Fungal population per cm^2 Log10 count [10]: −0.35 log10 units
Fungal population per cm^2 Log10 reduction ([10]; vs undipped control): 1.67 bc log10 units
Bacterial population per cm^2 Actual count [11]: 10,752 per cm^2
Bacterial population per cm^2 Log10 count [11]: 4.03 log10 units
Bacterial population per cm^2 Log10 reduction ([11]; vs undipped control): 1.06 bcd log10 units
Bacterial population per cm^2 Actual count [12, 19]: 12 per cm^2
Bacterial population per cm^2 Log10 count [12, 19]: 0.98 log10 units
Bacterial population per cm^2 Log10 reduction [12, 19]: 1.03 defg log10 units
Bacterial population per cm^2 Log10 reduction [12, 20]: about 1 log10 units
Bacterial population per cm^2 Actual count [12, 21]: 15 per cm^2
Bacterial population per cm^2 Log10 count [12, 21]: 1.17 log10 units
Bacterial population per cm^2 Log10 reduction [12, 21]: 0.92 def log10 units
Bacterial population per cm^2 Actual count [12, 22]: 23 per cm^2
Bacterial population per cm^2 Log10 count [12, 22]: 1.38 log10 units
Bacterial population per cm^2 Log10 reduction [12, 22]: 0.74 cd log10 units
Bacterial population per cm^2 Actual count [12, 23]: 36 per cm^2
Bacterial population per cm^2 Log10 count [12, 23]: 1.56 log10 units
Bacterial population per cm^2 Log10 reduction [12, 23]: 0.46 bc log10 units
Fungal population per cm^2 Actual count [13]: 9.3 per cm^2
Fungal population per cm^2 Log10 count [13]: 0.94 log10 units
Fungal population per cm^2 Log10 reduction ([13]; vs undipped control): 1.11 bc log10 units
Bacterial population per cm^2 Actual count [14]: 23 per cm^2
Bacterial population per cm^2 Log10 count [14]: 1.22 log10 units
Bacterial population per cm^2 Log10 reduction ([14]; vs undipped control): 1.70 d log10 units
Fungal population per cm^2 Actual count [15]: 4 per cm^2
Fungal population per cm^2 Log10 count [15]: 0.62 log10 units
Fungal population per cm^2 Actual count ([16]; dipped at 0 min (before dirt)): 3 per cm^2
Fungal population per cm^2 Log10 count ([16]; dipped at 0 min (before dirt)): 0.20 log10 units
Fungal population per cm^2 Log10 reduction ([16]; dipped at 0 min (before dirt)): 1.53 defg log10 units
Fungal population per cm^2 Log10 reduction [16, 24]: about 1.5 log10 units
Fungal population per cm^2 Actual count ([16]; dipped at 5 min): 7 per cm^2
Fungal population per cm^2 Log10 count ([16]; dipped at 5 min): 0.60 log10 units
Fungal population per cm^2 Log10 reduction ([16]; dipped at 5 min): 1.14 cde log10 units
Fungal population per cm^2 Actual count ([16]; dipped at 20 min): 6 per cm^2
Fungal population per cm^2 Log10 count ([16]; dipped at 20 min): 0.67 log10 units
Fungal population per cm^2 Log10 reduction ([16]; dipped at 20 min): 1.07 bcde log10 units
Fungal population per cm^2 Actual count ([16]; dipped at 50 min): 19 per cm^2
Fungal population per cm^2 Log10 count ([16]; dipped at 50 min): 1.22 log10 units
Fungal population per cm^2 Log10 reduction ([16]; dipped at 50 min): 0.52 ab log10 units
Fungal population per cm^2 Actual count [17]: 1.8 per cm^2
Fungal population per cm^2 Log10 count [17]: −0.13 log10 units
Fungal population per cm^2 Log10 reduction ([17]; vs undipped control): 2.12 b log10 units
Bacterial population per cm^2 Actual count [18]: 79 per cm^2
Bacterial population per cm^2 Log10 count [18]: 0.85 log10 units
Bacterial population per cm^2 Log10 reduction ([18]; vs undipped control): 2.46 de log10 units

Source: patent publication US7033509B2 (priority 2000, dated 2006)
